From patent US20240148749A1, “MNTBAP AND M(III)N-SUBSTITUTED PYRIDYLPORPHYRINS(MNPS)FOR USE IN REVERSING SEPSIS-INDUCED MICROGLIAL CELLS ALTERATIONS AND/OR FOR TREATING SEPSIS OR SEPSIS-ASSOCIATED ENCEPHALOPATHY” (priority 2021, published 2024)

Tested on: CLP mice
Assay: Survival after cecal ligation and puncture (CLP) model of sepsis
Assay type: in vivo, mouse
Experimental: (d) Survival curve of control and CLP mice with or without MnTBAP during time (n=10-12 per group). A log-rank (Mantel-Cox) p value for trend was calculated.
We used peritonitis induced by CLP as a model of sepsis (Rittirsch et al., 2009). Briefly, animals were anesthetized with ketamine (Imalgene® 1000 100 mg/kg, Merial, France) and Xylazine (Rompun® 2% 20 mg/kg, Bayer, Germany) prior to surgery. After laparotomy, caecum was ligatured at the distal third with a 4.0 suture and the distal part was perforated twice with a 21 Gauge needle. […]
Clinical score was assessed 6, 12 and 24 hours and 21 days after CLP using a modified SmithKline Beecham, Harwell, Imperial College and Royal London Hospital phenotype assessment (SHIRPA) (Rogers et al., 1997) of the maximum score of fourteen. Weight, temperature and locomotor activity using an open field box were measured at the same time points. We determined survival rate twice a day for 21 days after CLP. […] Each condition was scored from 0 to 2. […]
At the end, two groups were compared: CLP-Placebo, CLP-BMX-010. We determined survival rate twice a day for 4 days after CLP.”

For `O=C(O)c1ccc(/C2=C3\C=CC(=N3)/C(c3ccc(C(=O)O)cc3)=c3/cc/c4[n]3[Mn]([Cl])[n]3c2ccc3/C(c2ccc(C(=O)O)cc2)=C2/C=CC(=N2)\C=4c2ccc(C(=O)O)cc2)cc1` [MnTBAP, Manganese (III) tetrakis (4-benzoic acid)porphyrin chloride], the “survival rate compared with placebo mice” value (after CLP, MnTBAP mice) was “significant improvement” and the septic-mice mortality (systemic MnTBAP treatment, FIG. 4) was “strongly reduced”.
